The chains behind the UniProt entries cited, without tags or fusion partners. Residues count along the entry.
UniProt P00533, whole entry: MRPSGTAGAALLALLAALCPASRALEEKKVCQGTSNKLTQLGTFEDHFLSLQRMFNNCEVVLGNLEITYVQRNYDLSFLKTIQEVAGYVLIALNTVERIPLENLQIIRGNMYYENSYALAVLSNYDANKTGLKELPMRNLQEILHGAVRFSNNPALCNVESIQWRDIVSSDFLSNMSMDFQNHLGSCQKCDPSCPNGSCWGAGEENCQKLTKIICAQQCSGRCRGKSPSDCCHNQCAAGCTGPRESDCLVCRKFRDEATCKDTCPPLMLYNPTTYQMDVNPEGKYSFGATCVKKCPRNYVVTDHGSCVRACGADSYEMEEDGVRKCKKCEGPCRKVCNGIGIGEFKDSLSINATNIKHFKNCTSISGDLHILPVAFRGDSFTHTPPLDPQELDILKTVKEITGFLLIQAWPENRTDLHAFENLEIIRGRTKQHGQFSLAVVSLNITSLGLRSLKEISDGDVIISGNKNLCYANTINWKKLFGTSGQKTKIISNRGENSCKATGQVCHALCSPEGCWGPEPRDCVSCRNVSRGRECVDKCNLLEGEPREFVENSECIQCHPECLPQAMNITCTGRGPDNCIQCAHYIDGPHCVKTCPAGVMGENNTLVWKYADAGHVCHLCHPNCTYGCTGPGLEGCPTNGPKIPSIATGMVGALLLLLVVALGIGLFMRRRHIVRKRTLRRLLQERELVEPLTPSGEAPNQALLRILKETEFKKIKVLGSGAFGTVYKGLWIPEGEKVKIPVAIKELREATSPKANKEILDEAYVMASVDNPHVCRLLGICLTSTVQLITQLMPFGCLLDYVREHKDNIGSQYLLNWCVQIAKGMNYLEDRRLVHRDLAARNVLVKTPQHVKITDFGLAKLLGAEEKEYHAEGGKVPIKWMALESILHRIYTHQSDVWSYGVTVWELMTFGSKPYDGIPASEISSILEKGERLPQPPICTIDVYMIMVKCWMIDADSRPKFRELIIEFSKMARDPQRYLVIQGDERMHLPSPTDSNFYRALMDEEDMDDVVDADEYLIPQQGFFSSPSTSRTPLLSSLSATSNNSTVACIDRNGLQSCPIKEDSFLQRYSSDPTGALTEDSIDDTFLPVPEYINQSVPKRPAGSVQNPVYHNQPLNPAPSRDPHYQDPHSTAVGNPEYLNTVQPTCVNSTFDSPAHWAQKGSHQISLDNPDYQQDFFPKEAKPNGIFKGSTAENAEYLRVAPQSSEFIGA
UniProt P00533, 25-1210 T790M limits assumed: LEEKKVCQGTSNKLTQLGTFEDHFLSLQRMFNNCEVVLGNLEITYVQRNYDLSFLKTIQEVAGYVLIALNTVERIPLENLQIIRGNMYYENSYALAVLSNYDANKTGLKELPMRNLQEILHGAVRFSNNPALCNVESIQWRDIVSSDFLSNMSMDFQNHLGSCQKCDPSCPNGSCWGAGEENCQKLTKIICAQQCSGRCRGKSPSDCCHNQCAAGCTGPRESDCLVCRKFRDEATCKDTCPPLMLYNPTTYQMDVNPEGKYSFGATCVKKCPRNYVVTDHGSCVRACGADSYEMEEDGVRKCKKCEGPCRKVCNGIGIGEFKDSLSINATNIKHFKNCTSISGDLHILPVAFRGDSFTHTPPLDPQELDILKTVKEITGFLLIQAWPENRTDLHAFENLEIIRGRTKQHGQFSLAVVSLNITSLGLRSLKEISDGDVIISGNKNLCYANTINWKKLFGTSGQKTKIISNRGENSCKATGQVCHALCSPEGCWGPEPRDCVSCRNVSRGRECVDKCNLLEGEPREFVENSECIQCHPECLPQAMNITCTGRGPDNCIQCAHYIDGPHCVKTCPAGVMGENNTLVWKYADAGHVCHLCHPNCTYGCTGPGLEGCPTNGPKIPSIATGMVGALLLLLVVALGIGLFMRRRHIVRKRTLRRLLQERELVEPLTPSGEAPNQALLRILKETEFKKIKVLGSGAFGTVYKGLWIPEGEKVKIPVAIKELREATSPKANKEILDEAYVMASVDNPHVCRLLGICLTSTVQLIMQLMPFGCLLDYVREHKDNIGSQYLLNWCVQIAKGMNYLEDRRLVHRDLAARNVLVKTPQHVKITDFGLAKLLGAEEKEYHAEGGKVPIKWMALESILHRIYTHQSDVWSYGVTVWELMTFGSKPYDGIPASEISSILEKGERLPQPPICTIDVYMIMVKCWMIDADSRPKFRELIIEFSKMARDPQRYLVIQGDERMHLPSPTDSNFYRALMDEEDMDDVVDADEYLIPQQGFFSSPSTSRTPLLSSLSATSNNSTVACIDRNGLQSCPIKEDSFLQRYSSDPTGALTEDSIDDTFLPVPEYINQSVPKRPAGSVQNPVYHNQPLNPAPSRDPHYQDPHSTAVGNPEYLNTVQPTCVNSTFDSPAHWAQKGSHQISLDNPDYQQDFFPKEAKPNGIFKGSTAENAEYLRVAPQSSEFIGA

In ChEMBL document CHEMBL3351667, “A chemical tuned strategy to develop novel irreversible EGFR-TK inhibitors with improved safety and pharmacokinetic profiles” (J Med Chem, 2014):

Legend:
A-431 = experiment: cells; assay type: functional, cell-based; conditions: Homo sapiens, A-431, 48 h
NCI-H1975 = experiment: cells; assay type: functional, cell-based; conditions: Homo sapiens, NCI-H1975, 48 h
[1] = molecular target: Epidermal growth factor receptor (Homo sapiens, UniProt P00533);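 further: inhibition of wild-type EGFR read out by HTRF, with a 5 min incubation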
[2] = molecular target: Epidermal growth factor receptor (Homo sapiens, UniProt P00533, T790M); assay type: protein assay

Compound | IC50 (A-431) | IC50 (NCI-H1975) | IC50 [1] | IC50 [2]
CCOc1cc2ncnc(Nc3ccc(OCc4ccccn4)c(Cl)c3)c2cc1NC(=O)/C(F)=C/CN(C)C |  | 640 nM |  | 
CCOc1cc2ncnc(Nc3ccc(OCc4ccccn4)c(Cl)c3)c2cc1NC(=O)/C(F)=C\CN(C)C | 980 nM |  |  | 
O=C(Nc1cc2c(Nc3ccc(F)c(Cl)c3)ncnc2cc1O[C@H]1CCOC1)/C(F)=C/CN1CCOCC1 |  |  | 0.26 nM | 21.3 nM
O=C(Nc1cc2c(Nc3ccc(F)c(Cl)c3)ncnc2cc1O[C@H]1CCOC1)/C(F)=C\CN1CCOCC1 |  |  | 1 nM | 42.9 nM

Results, then the molecule that gave them:

IC50 (A-431) | IC50 (NCI-H1975) | IC50 [1] | IC50 [2] | Compound
550 nM | 410 nM |  |  | COc1cc2ncnc(Nc3ccc(F)c(Cl)c3)c2cc1NC(=O)/C(F)=C/CN(C)C
 | 760 nM |  |  | COc1cc2ncnc(Nc3ccc(F)c(Cl)c3)c2cc1NC(=O)/C(F)=C/CN1CCCCC1
680 nM |  |  |  | COc1cc2ncnc(Nc3ccc(F)c(Cl)c3)c2cc1NC(=O)/C(F)=C\CN1CCCCC1
